# Test results taken from PubChem BioAssay AID1274 (Emory University Molecular Libraries Screening Center, 2008).
# Sequences of proteins named here, by UniProt entry; tags and fusion partners are left off.
# UniProt P14598, whole entry: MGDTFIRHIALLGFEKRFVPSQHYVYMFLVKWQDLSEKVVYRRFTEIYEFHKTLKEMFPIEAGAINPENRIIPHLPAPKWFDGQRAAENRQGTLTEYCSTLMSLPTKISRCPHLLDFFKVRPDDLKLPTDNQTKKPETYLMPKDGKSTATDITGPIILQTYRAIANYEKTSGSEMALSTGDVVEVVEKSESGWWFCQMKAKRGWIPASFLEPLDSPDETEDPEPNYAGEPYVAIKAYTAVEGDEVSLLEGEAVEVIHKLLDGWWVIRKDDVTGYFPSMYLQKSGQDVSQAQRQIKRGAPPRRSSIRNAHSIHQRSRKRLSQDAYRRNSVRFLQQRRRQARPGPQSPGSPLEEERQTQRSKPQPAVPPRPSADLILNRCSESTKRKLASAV
# The entries are a selection whose mix differs from that of the whole data set. The source made the active and inactive calls.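 The calls were made as follows: active = inhibition above about 30% (limit read from the data); inactive = the rest.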
# Biological target: Neutrophil cytosol factor 1 (Homo sapiens) (UniProt P14598)
# Experiment: blockers of p47phox binding to p22phox – biochemical, uHTS, NADPH oxidase regulatory subunit, primary screen (AID 1274);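 also: 0% = p47phox with labelled peptide and 100% = labelled peptide alone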
# Details: p47phox/p22phox peptide binding, fluorescence polarization, 2 h; at 24.7 µM; hits give high values
row,Compound,inhibition
1,O=[As](O)(c1ccccc1Br)c1ccccc1Br,inactive: -2.86%
